# Test results from PMC4389443 (Respiratory Research, 2015).
# Sequences of proteins named here, by UniProt entry; tags and fusion partners are left off. Residues count along the entry.
# UniProt P19801, 20-751: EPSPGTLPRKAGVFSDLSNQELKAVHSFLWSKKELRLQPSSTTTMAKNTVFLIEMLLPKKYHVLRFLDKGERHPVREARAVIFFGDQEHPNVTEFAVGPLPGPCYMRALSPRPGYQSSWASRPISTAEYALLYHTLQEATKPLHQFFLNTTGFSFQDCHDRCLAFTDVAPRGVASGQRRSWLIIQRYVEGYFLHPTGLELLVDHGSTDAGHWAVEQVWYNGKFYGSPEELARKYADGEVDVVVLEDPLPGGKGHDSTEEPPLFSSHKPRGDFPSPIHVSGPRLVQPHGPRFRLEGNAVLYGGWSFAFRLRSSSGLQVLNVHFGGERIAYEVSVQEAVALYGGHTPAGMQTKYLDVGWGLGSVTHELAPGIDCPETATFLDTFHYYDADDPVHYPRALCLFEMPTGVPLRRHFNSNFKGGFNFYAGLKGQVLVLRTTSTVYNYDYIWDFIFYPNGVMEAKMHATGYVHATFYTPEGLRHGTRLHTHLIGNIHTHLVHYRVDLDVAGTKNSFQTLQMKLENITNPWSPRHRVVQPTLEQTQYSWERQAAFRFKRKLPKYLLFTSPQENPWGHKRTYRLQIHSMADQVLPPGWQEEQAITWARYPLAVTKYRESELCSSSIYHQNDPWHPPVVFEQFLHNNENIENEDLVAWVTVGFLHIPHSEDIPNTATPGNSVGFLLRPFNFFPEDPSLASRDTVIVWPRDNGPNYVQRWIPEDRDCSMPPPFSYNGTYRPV
# Target: Recombinant diamine oxidase (AOC1) (Homo sapiens, UniProt P19801)
# Assay: biochemical
compound,measurement,value
CC(C)(C)NC(=O)c1ccc(OC/C(=C/F)CN)cc1 [PXS-4728A],IC50,12 µM
